## CycPeptMPDB entries from one study

Values of Kelly et al. 2021, doi:10.1021/jacs.0c06115, as listed in CycPeptMPDB.

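Lipid, pH, incubation time, direction and concentration are not recorded in the data file. The list need not hold all peptides of the study. Peptides that the database sets to -10, its floor, are left out.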

PAMPA measures passive passage through an artificial lipid membrane.
MDCK: transport across canine kidney epithelial cells.
Values are log10 P with P in cm/s, so -5 is more permeable than -7.
Cells with "n/a" have no entry in this list.

compound,PAMPA (log10 cm/s),MDCK (log10 cm/s)
CC(=O)N1CCC[C@H]1C(=O)N[C@@H]1C(=O)N(C)[C@H](CC(C)C)C(=O)N(C)[C@@H](CC(C)C)C(=O)N(C)[C@@H](CC(C)C)C(=O)N(C)[C@@H](CC(C)C)C(=O)N(C)[C@H](C)C(=O)N[C@@H](CC(C)C)C(=O)N2CCC[C@@H]2C(=O)O[C@@H]1C,-5.09,n/a
CC(=O)N1CCC[C@H]1C(=O)N(C)[C@H](CC(C)C)C(=O)N[C@@H]1C(=O)N(C)[C@@H](CC(C)C)C(=O)N[C@@H](CC(C)C)C(=O)N(C)[C@H](CC(C)C)C(=O)N(C)[C@@H](C)C(=O)N[C@@H](CC(C)C)C(=O)N2CCC[C@H]2C(=O)O[C@@H]1C,-5.20,n/a
CC(=O)N1CCC[C@@H]1C(=O)N(C)[C@@H](CC(C)C)C(=O)N[C@@H]1C(=O)N(C)[C@H](CC(C)C)C(=O)N(C)[C@@H](CC(C)C)C(=O)N(C)[C@@H](CC(C)C)C(=O)N[C@@H](C)C(=O)N[C@H](CC(C)C)C(=O)N2CCC[C@H]2C(=O)O[C@@H]1C,-5.13,n/a
CC(=O)N1CCC[C@H]1C(=O)N(C)[C@@H](CC(C)C)C(=O)N[C@@H]1C(=O)N(C)[C@@H](CC(C)C)C(=O)N(C)[C@H](CC(C)C)C(=O)N[C@H](CC(C)C)C(=O)N(C)[C@@H](C)C(=O)N[C@H](CC(C)C)C(=O)N2CCC[C@@H]2C(=O)O[C@@H]1C,-6.64,n/a
CC(=O)N1CCC[C@@H]1C(=O)N(C)[C@@H](CC(C)C)C(=O)N[C@@H]1C(=O)N(C)[C@@H](CC(C)C)C(=O)N(C)[C@H](CC(C)C)C(=O)N[C@H](CC(C)C)C(=O)N(C)[C@H](C)C(=O)N[C@H](CC(C)C)C(=O)N2CCC[C@H]2C(=O)O[C@@H]1C,-5.99,n/a
CC(=O)N1CCC[C@H]1C(=O)N(C)[C@@H](CC(C)C)C(=O)N[C@@H]1C(=O)N[C@H](CC(C)C)C(=O)N(C)[C@@H](CC(C)C)C(=O)N(C)[C@@H](CC(C)C)C(=O)N[C@@H](C)C(=O)N[C@@H](CC(C)C)C(=O)N2CCC[C@@H]2C(=O)O[C@@H]1C,-5.22,n/a
CC(=O)N1CCC[C@@H]1C(=O)N(C)[C@@H](CC(C)C)C(=O)N[C@@H]1C(=O)N[C@H](CC(C)C)C(=O)N[C@H](CC(C)C)C(=O)N[C@@H](CC(C)C)C(=O)N[C@@H](C)C(=O)N[C@@H](CC(C)C)C(=O)N2CCC[C@@H]2C(=O)O[C@@H]1C,-7.21,-6.30
CC(=O)N1CCC[C@H]1C(=O)N(C)[C@H](CC(C)C)C(=O)N[C@@H]1C(=O)N(C)[C@H](CC(C)C)C(=O)N[C@H](CC(C)C)C(=O)N[C@@H](CC(C)C)C(=O)N(C)[C@@H](C)C(=O)N[C@@H](CC(C)C)C(=O)N2CCC[C@H]2C(=O)O[C@@H]1C,-6.38,n/a
CC(=O)N1CCC[C@H]1C(=O)N[C@@H]1C(=O)N(C)[C@H](CC(C)C)C(=O)N[C@@H](CC(C)C)C(=O)N[C@@H](CC(C)C)C(=O)N[C@H](CC(C)C)C(=O)N[C@@H](C)C(=O)N[C@@H](CC(C)C)C(=O)N2CCC[C@@H]2C(=O)O[C@@H]1C,-6.77,n/a
CC(=O)N1CCC[C@H]1C(=O)N[C@@H]1C(=O)N[C@H](CC(C)C)C(=O)N[C@H](CC(C)C)C(=O)N[C@@H](CC(C)C)C(=O)N[C@@H](CC(C)C)C(=O)N[C@H](C)C(=O)N[C@@H](CC(C)C)C(=O)N2CCC[C@@H]2C(=O)O[C@@H]1C,-6.59,n/a
CC(=O)N1CCC[C@@H]1C(=O)N(C)[C@H](CC(C)C)C(=O)N[C@@H]1C(=O)N[C@H](CC(C)C)C(=O)N[C@H](CC(C)C)C(=O)N(C)[C@H](CC(C)C)C(=O)N[C@@H](C)C(=O)N[C@@H](CC(C)C)C(=O)N2CCC[C@H]2C(=O)O[C@@H]1C,-6.90,n/a
CC(=O)N1CCC[C@@H]1C(=O)N(C)[C@@H](CC(C)C)C(=O)N[C@@H]1C(=O)N[C@H](CC(C)C)C(=O)N[C@H](CC(C)C)C(=O)N[C@@H](CC(C)C)C(=O)N(C)[C@H](C)C(=O)N[C@H](CC(C)C)C(=O)N2CCC[C@H]2C(=O)O[C@@H]1C,-5.99,n/a
CC(=O)N1CCC[C@H]1C(=O)N[C@@H]1C(=O)N(C)[C@H](CC(C)C)C(=O)N[C@H](CC(C)C)C(=O)N[C@@H](CC(C)C)C(=O)N(C)[C@H](CC(C)C)C(=O)N[C@@H](C)C(=O)N[C@@H](CC(C)C)C(=O)N2CCC[C@@H]2C(=O)O[C@@H]1C,-6.10,n/a
CC(=O)N1CCC[C@H]1C(=O)N(C)[C@H](CC(C)C)C(=O)N[C@@H]1C(=O)N(C)[C@H](CC(C)C)C(=O)N(C)[C@@H](CC(C)C)C(=O)N(C)[C@H](CC(C)C)C(=O)N[C@@H](C)C(=O)N[C@H](CC(C)C)C(=O)N2CCC[C@H]2C(=O)O[C@@H]1C,-5.25,n/a
CC(=O)N1CCC[C@@H]1C(=O)N(C)[C@@H](CC(C)C)C(=O)N[C@@H]1C(=O)N(C)[C@@H](CC(C)C)C(=O)N[C@@H](CC(C)C)C(=O)N(C)[C@@H](CC(C)C)C(=O)N(C)[C@H](C)C(=O)N[C@H](CC(C)C)C(=O)N2CCC[C@H]2C(=O)O[C@@H]1C,-6.15,n/a
CC(=O)N1CCC[C@@H]1C(=O)N(C)[C@@H](CC(C)C)C(=O)N[C@@H]1C(=O)N(C)[C@H](CC(C)C)C(=O)N(C)[C@H](CC(C)C)C(=O)N(C)[C@H](CC(C)C)C(=O)N(C)[C@H](C)C(=O)N[C@@H](CC(C)C)C(=O)N2CCC[C@H]2C(=O)O[C@@H]1C,-5.09,n/a
CC(=O)N1CCC[C@H]1C(=O)N(C)[C@@H](CC(C)C)C(=O)N[C@@H]1C(=O)N[C@H](CC(C)C)C(=O)N[C@@H](CC(C)C)C(=O)N[C@H](CC(C)C)C(=O)N(C)[C@H](C)C(=O)N[C@@H](CC(C)C)C(=O)N2CCC[C@H]2C(=O)O[C@@H]1C,-5.49,n/a
CC(=O)N1CCC[C@@H]1C(=O)N(C)[C@@H](CC(C)C)C(=O)N[C@@H]1C(=O)N(C)[C@H](CC(C)C)C(=O)N[C@H](CC(C)C)C(=O)N(C)[C@@H](CC(C)C)C(=O)N(C)[C@@H](C)C(=O)N[C@H](CC(C)C)C(=O)N2CCC[C@@H]2C(=O)O[C@@H]1C,-5.18,n/a
CC(=O)N[C@@H]1C(=O)N2CCC[C@H]2C(=O)N(C)[C@H](CC(C)C)C(=O)N[C@H](CC(C)C)C(=O)N[C@@H](CC(C)C)C(=O)N(C)[C@H](CC(C)C)C(=O)N(C)[C@H](C)C(=O)N[C@@H](CC(C)C)C(=O)N2CCC[C@@H]2C(=O)O[C@@H]1C,-5.70,n/a
CC(=O)N[C@@H]1C(=O)N2CCC[C@H]2C(=O)N(C)[C@H](CC(C)C)C(=O)N[C@@H](CC(C)C)C(=O)N[C@H](CC(C)C)C(=O)N[C@@H](CC(C)C)C(=O)N[C@@H](C)C(=O)N[C@@H](CC(C)C)C(=O)N2CCC[C@@H]2C(=O)O[C@@H]1C,-6.47,n/a
CC(=O)N1CCC[C@@H]1C(=O)N(C)[C@@H](CC(C)C)C(=O)N[C@@H]1C(=O)N[C@H](CC(C)C)C(=O)N(C)[C@H](CC(C)C)C(=O)N[C@@H](CC(C)C)C(=O)N(C)[C@@H](C)C(=O)N[C@@H](CC(C)C)C(=O)N2CCC[C@@H]2C(=O)O[C@@H]1C,-5.28,n/a
CC(=O)N1CCC[C@H]1C(=O)N[C@@H]1C(=O)N(C)[C@H](CC(C)C)C(=O)N[C@H](CC(C)C)C(=O)N[C@H](CC(C)C)C(=O)N(C)[C@H](CC(C)C)C(=O)N(C)[C@@H](C)C(=O)N[C@@H](CC(C)C)C(=O)N2CCC[C@@H]2C(=O)O[C@@H]1C,-6.68,n/a
CC(=O)N[C@@H]1C(=O)N2CCC[C@H]2C(=O)N(C)[C@H](CC(C)C)C(=O)N(C)[C@@H](CC(C)C)C(=O)N[C@H](CC(C)C)C(=O)N(C)[C@H](CC(C)C)C(=O)N[C@H](C)C(=O)N[C@@H](CC(C)C)C(=O)N2CCC[C@@H]2C(=O)O[C@@H]1C,-5.34,n/a

Excerpt, the final 2 entries:

| compound | PAMPA (log10 cm/s) | MDCK (log10 cm/s) |
|---|---|---|
| CC(=O)N1CCC[C@H]1C(=O)N[C@@H]1C(=O)N(C)[C@H](CC(C)C)C(=O)N[C@H](CC(C)C)C(=O)N[C@H](CC(C)C)C(=O)N(C)[C@H](CC(C)C)C(=O)N(C)[C@@H](C)C(=O)N[C@@H](CC(C)C)C(=O)N2CCC[C@@H]2C(=O)O[C@@H]1C | -6.68 | n/a |
| CC(=O)N[C@@H]1C(=O)N2CCC[C@H]2C(=O)N(C)[C@H](CC(C)C)C(=O)N(C)[C@@H](CC(C)C)C(=O)N[C@H](CC(C)C)C(=O)N(C)[C@H](CC(C)C)C(=O)N[C@H](C)C(=O)N[C@@H](CC(C)C)C(=O)N2CCC[C@@H]2C(=O)O[C@@H]1C | -5.34 | n/a |